Reference: patent US20240216357A1 (SICHUAN HUIYU PHARMACEUTICAL CO., LTD., priority 2021, published 2024)

Test system: NCI-H1417 cells
Experiment: In vitro cell proliferation detection (CellTiter-Glo, 7 days)
Assay type: cell-based
Settings: read-out: NCI-H1417 proliferation inhibition IC50

Question: How did the IC50 turn out when `CS(=O)(=O)N1CCN(C(=O)c2cc(CN[C@@H]3C[C@H]3c3ccc(F)cc3)nc(Oc3ccc(-n4cccn4)cc3)n2)CC1` [Example 251] was run?
Answer: 600 nM
